Measurements: PMC4420714 (Peptides, 2015)

Chains of the proteins cited; added tags and fusions are not shown. Residues count along the entry.
UniProt P32241, 31-457, species assumed: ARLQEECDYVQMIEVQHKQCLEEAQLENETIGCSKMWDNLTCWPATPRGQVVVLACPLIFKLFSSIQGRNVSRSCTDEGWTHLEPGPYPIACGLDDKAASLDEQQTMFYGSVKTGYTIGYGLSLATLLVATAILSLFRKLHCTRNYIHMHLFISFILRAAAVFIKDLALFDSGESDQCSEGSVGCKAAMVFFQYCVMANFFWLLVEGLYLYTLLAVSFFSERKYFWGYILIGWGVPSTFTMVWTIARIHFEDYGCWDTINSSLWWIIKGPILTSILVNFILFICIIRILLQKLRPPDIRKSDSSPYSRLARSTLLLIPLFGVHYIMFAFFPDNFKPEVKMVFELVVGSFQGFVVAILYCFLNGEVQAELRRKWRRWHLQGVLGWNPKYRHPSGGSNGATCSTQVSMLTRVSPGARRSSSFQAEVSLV

How the values were obtained:
[1] = molecular target: T1, VPAC1-R (Homo sapiens, UniProt P32241); test: [3H]cAMP generation in VPAC1-R/PANC-1 cells; format: cell-based; details: for [3H]cAMP VPAC1-R/PANC-1 % max of partial agonist / [3H]cAMP VPAC1-R/PANC-1 % max (agonist class) / EC50: VPAC1-R/PANC-1 cells; for [3H]cAMP VPAC1-R/PANC-1 % max of partial agonist: partial agonist maximum; for [3H]cAMP VPAC1-R/PANC-1 % max (agonist class): relative to PACAP38, up to 1 µM; for EC50: read-out: [3H]cAMP VPAC1-R/PANC-1 EC50
[2] = molecular target: T1, VPAC1-R; test: [3H]cAMP generation in T47D cells; format: cell-based; details: T47D cells; for [3H]cAMP T47D % max (agonist class): relative to PACAP38, up to 1 µM; for EC50: read-out: [3H]cAMP T47D EC50
[3] = molecular target: T2, PAC1-R (Homo sapiens, UniProt P41586); test: Binding of 125I-PACAP27 to PAC1-R stably transfected NIH 3T3 cells; details: for decrease in affinity for PAC1-R cells compared to native PACAP38 (or PACAP27): ratio of binding IC50, analog vs native parent peptide
T2 sequence (P41586 21-468): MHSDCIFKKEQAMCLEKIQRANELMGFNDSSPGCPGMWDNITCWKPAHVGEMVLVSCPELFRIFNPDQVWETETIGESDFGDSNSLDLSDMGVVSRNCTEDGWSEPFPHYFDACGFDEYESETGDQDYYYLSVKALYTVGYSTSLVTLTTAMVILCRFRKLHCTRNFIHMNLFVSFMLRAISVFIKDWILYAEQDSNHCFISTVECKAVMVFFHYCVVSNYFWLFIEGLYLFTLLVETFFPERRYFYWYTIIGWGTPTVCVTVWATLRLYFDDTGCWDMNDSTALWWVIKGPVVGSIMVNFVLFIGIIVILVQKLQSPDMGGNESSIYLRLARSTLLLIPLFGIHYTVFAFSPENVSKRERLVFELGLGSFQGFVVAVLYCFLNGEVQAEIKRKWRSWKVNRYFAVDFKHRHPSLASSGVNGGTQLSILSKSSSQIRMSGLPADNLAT

[4] = molecular target: T1, VPAC1-R; test: Binding of 125I-VIP to VPAC1-R/PANC-1 cells; details: ratio of binding IC50, analog vs native parent peptide
[5] = molecular target: T3, VPAC2-R (Homo sapiens, UniProt P41587); format: binding; details: read-out: IC50 VPAC2-R, Sup-T1; Sup-T1 cells, 75 pM 125I-Ro 25-1553, 37°C
T3 sequence (P41587 24-438): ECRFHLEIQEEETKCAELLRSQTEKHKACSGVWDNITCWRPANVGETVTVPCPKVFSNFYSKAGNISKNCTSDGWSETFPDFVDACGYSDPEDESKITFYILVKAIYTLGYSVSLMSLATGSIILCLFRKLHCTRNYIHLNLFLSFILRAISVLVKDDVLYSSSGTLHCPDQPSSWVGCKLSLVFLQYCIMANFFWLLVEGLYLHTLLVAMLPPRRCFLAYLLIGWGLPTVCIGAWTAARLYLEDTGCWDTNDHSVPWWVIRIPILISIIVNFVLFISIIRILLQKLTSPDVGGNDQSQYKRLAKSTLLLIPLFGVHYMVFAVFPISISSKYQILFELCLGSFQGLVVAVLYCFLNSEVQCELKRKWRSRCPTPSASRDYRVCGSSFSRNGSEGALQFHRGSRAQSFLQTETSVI

[6] = molecular target: T2, PAC1-R; test: [3H]cAMP generation in PAC1-R cells; format: cell-based; details: for higher potency for PAC1-R cells compared to VPAC1-R/PANC-1 cells / higher potency for PAC1-R cells compared to VPAC2-R/PANC-1 cells: cAMP generation EC50 ratio; for EC50: read-out: [3H]cAMP PAC1-R EC50
[7] = molecular target: T3, VPAC2-R; test: [3H]cAMP generation in VPAC2-R/PANC-1 cells; format: cell-based; details: read-out: [3H]cAMP VPAC2-R/PANC-1 EC50; VPAC2-R/PANC-1 cells

Row | Substance | [3H]cAMP VPAC1-R/PANC-1 % max of partial agonist [1] | [3H]cAMP VPAC1-R/PANC-1 % max (agonist class) [1] | EC50 [1] [nM] | [3H]cAMP T47D % max of partial agonist ([2]; partial agonist maximum) | [3H]cAMP T47D % max (agonist class) [2] | EC50 [2] [nM] | decrease in affinity for PAC1-R cells compared to native PACAP38 (or PACAP27) [3] | decrease in affinity for VPAC1-R/PANC-1 cells compared to native PACAP38 (or PACAP27, VIP) [4] | IC50 [5] [nM] | higher potency for PAC1-R cells compared to VPAC1-R/PANC-1 cells [6] | higher potency for PAC1-R cells compared to VPAC2-R/PANC-1 cells [6] | EC50 ([6]; PAC1-R cells) [nM] | EC50 [7] [nM] | IC50 ([3]; read-out: IC50 PAC1-R) [nM] | EC50 [6] [nM] | [3H]cAMP T47D % max, agonist activity at 1 µM, still increasing ([2]; at 1 µM) | greater affinity than potency for stimulating cAMP generation, VPAC1-R/PANC-1 cells ([1]; EC50 cAMP over binding IC50) | higher affinity (selectivity) for PAC1-R cells over VPAC2-R/PANC-1 cells ([3]; IC50 VPAC2-R/PANC-1 divided by IC50 PAC1-R, binding) | greater affinity than potency, PAC1-R cells ([6]; EC50 cAMP over binding IC50)
1 | [Aib^2,Lys(palmitoyl)^38]PACAP38 [Peptide P14] | pAg (80) % max | partial agonists; also recorded: pAg (80) | 9.12 ± 0.56 | pAg (62) % max | pAg (62) | 6.68 ± 0.28 | 11–30 fold | 11–40 fold | 13.2 ± 0.2 | 16–50 fold and 15-to-666 fold | 7.4 fold | 0.45 ± 0.02 | 3.31 ± 0.2 | – | – | – | – | – | –
2 | [Aib^16,28,Ala^17,Lys^34,D-Lys^38]PACAP38 [Peptide P34] | – | – | 1.58 ± 0.08 | – | – | 30.2 ± 1.9 | 10–30 fold | 3–20 fold | 7.76 ± 0.34 | 6–15 fold | 7-to-15 fold | 0.19 ± 0.01 | 2.63 ± 0.15 | – | – | – | – | – | –
3 | [Aib^16,Ala^17,Lys^34]PACAP38 [Peptide P30] | – | – | 1.38 ± 0.21 | – | – | 3.24 ± 0.24 | 10–30 fold | 3–20 fold | 2.95 ± 0.07 | 6–15 fold | 7-to-15 fold | 0.25 ± 0.02 | 3.8 ± 0.18 | – | – | – | – | – | –
4 | [Ala^15,17,Aib^16,28,Lys^34,D-Lys^38]PACAP38 [Peptide P32] | – | – | 1.95 ± 0.16 | – | – | 30.2 ± 2.9 | > 350 fold | 30-to-100 fold | 42.7 ± 1.1 | – | 5 fold | 1.38 ± 0.07 | 7.41 ± 0.39 | – | – | – | – | – | –
5 | [Ala^22]PACAP38 [Peptide P17] | – | – | 1.07 ± 0.06 | – | – | 41.7 ± 3.9 | – | 11–40 fold | > 1000 | – | – | – | 282 ± 12 | 3.72 ± 0.12 | 0.32 ± 0.11 | – | – | – | –
6 | [Hyp^3,Aib^16,Ala^17,Lys^34]PACAP38 [Peptide P31] | – | Ag (1 µM, 80) | 155 ± 13 | – | Ag (1 µM, 55) | > 1000 | 100–300 fold | 180-to-620 fold | 100 ± 4 | 15-to-666 fold | 103 fold | 1.51 ± 0.1 | 155 ± 11 | – | – | Ag (1 µM, 55) % max | – | – | –
7 | [Hyp^3,Ala^16,17]PACAP38 [Peptide P20] | pAg (25) % max | partial agonists; also recorded: pAg (25) | > 1000 | – | No Act | > 1000 | > 350 fold | 180-to-620 fold | 380 ± 15 | 16–50 fold | 22–55 fold | 139 ± 10 | > 1000 | – | – | – | 1.2–65.2 fold | same affinity | 1.2- to 64 fold

Several values for one entry are separate records, joined by “and”; a condition that tells them apart may be missing. Identical values can stand only once. Entries after “also recorded” stand apart in the source; their conditions may differ. Like-named read-outs stand apart in the source and are kept apart here.
